Assay results reported in ChEMBL document CHEMBL5518194, “An 19F NMR fragment-based approach for the discovery and development of BRCA2-RAD51 inhibitors to pursuit synthetic lethality in combination with PARP inhibition in pancreatic cancer” (Eur J Med Chem, 2024).

Columns and labels:
[1] = in vitro; settings: human, H6037 cells
[2] = physchem; settings: PBS, pH 7.4

Structure (SMILES): O=c1cc(-c2cccc(Br)c2)[nH]c2cc(C(F)(F)F)nn12
- inhibition at 144 h, 30 µM [1]: ≤ 20%
- solubility kinetic at 24 h [2]: > 250 µM
